Consider 1 compound from paper PMC11864979, “First-in-class ultralong-target-residence-time p38α inhibitors as a mitosis-targeted therapy for colorectal cancer” (Nature Cancer, 2025).

One assay relates to KAP liver metastasis. Description: survival of wild-type mice with KAP liver metastasis. It counts as in vivo, mouse. The following applies: 20 mg kg^−1 daily, start 5 weeks after organoid inoculation.
The subject of a further assay is KAP^2D cells. Description: annexin V apoptosis analysis in KAP^2D cells. It is filed as cell-based, mouse. The following applies: 3 d of treatment; Fig. 5a. As for the experimental part: For DNA content analysis, cells were fixed with ethanol, washed and resuspended in PBS containing 50 µg ml^−1 propidium iodide (Invitrogen) and 250 µg ml^−1 RNase A (Qiagen). Apoptosis was analyzed with the FITC annexin V apoptosis detection kit (Biolegend). Both measurements were performed with FACS Canto II (BD) and physical parameters were used to exclude cell debris and cell doublets.

`O=C1c2ccc(Nc3ccc(F)cc3F)cc2CCc2ccc(OC[C@H](O)CO)cc21` [SKL, skepinone-L]: the “survival / therapeutic efficacy in KAP liver metastasis (in words)” value in the assay on KAP liver metastasis was “did not exert therapeutic efficacy”. Moreover, in the assay on KAP^2D cells, the “Annexin V+ cells” value came to 11.70%.
